Results on two molecules are retold here after ChEMBL document CHEMBL1157817, “2-aminoimidazole amino acids as inhibitors of the binuclear manganese metalloenzyme human arginase I” (J Med Chem, 2010).

The target in the test is T1, Arginase-1 (Homo sapiens, UniProt P05089).
T1 sequence (P05089 whole entry): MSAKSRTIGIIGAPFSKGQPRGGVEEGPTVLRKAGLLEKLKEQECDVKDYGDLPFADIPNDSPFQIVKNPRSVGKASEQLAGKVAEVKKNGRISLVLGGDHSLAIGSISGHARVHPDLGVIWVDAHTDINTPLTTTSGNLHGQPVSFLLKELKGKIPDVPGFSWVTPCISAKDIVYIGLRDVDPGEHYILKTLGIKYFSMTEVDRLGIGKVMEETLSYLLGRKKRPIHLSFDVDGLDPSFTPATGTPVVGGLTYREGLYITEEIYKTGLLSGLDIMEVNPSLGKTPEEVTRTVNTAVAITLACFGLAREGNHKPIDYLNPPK
The experiment in a line: Inhibition of human recombinant full length arginase 1 expressed in Escherichia coli BL21(DE3) by fixed point assay. Put shortly: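 Fixed-point assay with [14C-guanidino]-L-arginine. […] Inhibition mode from Lineweaver-Burk plots at several inhibitor concentrations.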

The term Ki denotes a dissociation constant, usually derived from enzyme kinetics or from competition with a known ligand. In the case of `Nc1ncc(C[C@H](N)C(=O)O)[nH]1`, the inhibition constant (Ki) is 300 µM. As to `Nc1ncc(CC[C@H](N)C(=O)O)[nH]1`, the Ki came out at 3000 µM.
